Results from patent US20110207745A1 (priority 2009, published 2011).
Where two headings read alike, the source gives them in different places.

Test system: Male Sprague Dawley rats
Details: rat; for Mean Escape Failures: 50 trials

With CCN(CC)C(=O)c1ccc([C@H](c2cccc(N)c2)N2CCN(Cc3ccc(F)cc3)CC2)cc1 [Compound A1, 4-{(R)-(3-aminophenyl)[4-(4-fluorobenzyl)piperazin-1-yl]methyl}-N,N-diethylbenzamide] the “Mean Center Crossings” value (0.1 mg/kg by mouth twice a day) was 26.6, the “Mean Escape Failures” value (0.1 mg/kg by mouth twice a day) was 6.1 and the “Mean Center Crossings” value (1 mg/kg by mouth twice a day) was 30.9. For the same compound, the “Mean Escape Failures” value (1 mg/kg by mouth twice a day) was 3.1, the “Mean Center Crossings” value (10 mg/kg by mouth twice a day) was 26.9 and the “Mean Escape Failures” value (10 mg/kg by mouth twice a day) was 4.9. The “effect on escape failures in the learned helplessness test” value (indicative of potential antidepressant action) was “decrease in escape failures”.

With CN(C)CCCN1c2ccccc2CCc2ccccc21 [Imipramine, reference compound] the “Mean Center Crossings” value (20 mg/kg by mouth twice a day) was 30.2 and the “Mean Escape Failures” value (20 mg/kg by mouth twice a day) was 2.3.
